Results: publication PMC10124904, “Activation of Gcn2 by small molecules designed to be inhibitors” (The Journal of Biological Chemistry, 2023)
Values joined by “and” are separate entries in the source; they are usually repeats but may differ in a detail not shown here. Identical values can stand only once. Like-named read-outs stand apart in the source and are kept apart here.

The chains behind the UniProt entries cited, without tags or fusion partners. Where a name states a change or a piece, a line headed by the entry shows the natural chain unless it says otherwise.
UniProt Q9P2K8, whole entry: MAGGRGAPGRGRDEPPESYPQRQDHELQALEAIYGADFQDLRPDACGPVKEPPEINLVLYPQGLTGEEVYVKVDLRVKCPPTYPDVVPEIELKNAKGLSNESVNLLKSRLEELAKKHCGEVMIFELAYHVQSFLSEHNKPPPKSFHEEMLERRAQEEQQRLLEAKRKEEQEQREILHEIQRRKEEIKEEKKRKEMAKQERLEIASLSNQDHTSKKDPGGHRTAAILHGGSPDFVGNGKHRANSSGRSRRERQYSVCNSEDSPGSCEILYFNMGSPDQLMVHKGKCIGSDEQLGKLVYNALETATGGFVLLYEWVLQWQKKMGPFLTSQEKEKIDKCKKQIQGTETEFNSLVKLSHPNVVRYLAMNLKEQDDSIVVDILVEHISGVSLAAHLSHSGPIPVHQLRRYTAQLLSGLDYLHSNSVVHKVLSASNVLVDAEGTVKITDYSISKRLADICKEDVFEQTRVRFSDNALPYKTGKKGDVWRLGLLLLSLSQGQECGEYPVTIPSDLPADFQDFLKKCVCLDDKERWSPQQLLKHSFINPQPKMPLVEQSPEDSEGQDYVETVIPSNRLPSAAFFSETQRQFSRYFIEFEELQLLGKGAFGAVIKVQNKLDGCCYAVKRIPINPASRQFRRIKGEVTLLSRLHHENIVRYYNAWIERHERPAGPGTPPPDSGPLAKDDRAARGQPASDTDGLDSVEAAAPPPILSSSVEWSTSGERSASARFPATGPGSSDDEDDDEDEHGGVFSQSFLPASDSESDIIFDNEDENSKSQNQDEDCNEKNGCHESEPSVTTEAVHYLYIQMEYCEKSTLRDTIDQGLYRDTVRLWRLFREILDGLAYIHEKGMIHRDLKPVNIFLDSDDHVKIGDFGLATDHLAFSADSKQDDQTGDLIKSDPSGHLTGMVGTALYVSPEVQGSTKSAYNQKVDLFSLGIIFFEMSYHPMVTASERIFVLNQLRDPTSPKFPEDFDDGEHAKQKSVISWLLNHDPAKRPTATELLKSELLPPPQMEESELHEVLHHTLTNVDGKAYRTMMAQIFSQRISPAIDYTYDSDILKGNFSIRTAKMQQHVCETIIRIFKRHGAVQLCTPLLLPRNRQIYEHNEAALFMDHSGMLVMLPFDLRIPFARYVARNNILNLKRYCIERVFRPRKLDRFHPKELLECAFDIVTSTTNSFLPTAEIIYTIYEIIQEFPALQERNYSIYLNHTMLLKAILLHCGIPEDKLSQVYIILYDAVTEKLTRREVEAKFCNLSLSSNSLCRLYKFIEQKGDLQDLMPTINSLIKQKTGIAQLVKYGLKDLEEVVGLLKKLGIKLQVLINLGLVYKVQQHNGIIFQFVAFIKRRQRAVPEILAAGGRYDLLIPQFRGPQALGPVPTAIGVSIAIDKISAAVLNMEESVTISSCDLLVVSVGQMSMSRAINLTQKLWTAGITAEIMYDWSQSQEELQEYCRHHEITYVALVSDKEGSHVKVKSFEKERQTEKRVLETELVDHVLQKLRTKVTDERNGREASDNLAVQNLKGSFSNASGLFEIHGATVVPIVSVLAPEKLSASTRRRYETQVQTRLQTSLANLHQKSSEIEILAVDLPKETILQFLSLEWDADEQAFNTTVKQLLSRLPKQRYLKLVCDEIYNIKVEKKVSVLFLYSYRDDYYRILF
UniProt Q9P2K8, whole entry M802F: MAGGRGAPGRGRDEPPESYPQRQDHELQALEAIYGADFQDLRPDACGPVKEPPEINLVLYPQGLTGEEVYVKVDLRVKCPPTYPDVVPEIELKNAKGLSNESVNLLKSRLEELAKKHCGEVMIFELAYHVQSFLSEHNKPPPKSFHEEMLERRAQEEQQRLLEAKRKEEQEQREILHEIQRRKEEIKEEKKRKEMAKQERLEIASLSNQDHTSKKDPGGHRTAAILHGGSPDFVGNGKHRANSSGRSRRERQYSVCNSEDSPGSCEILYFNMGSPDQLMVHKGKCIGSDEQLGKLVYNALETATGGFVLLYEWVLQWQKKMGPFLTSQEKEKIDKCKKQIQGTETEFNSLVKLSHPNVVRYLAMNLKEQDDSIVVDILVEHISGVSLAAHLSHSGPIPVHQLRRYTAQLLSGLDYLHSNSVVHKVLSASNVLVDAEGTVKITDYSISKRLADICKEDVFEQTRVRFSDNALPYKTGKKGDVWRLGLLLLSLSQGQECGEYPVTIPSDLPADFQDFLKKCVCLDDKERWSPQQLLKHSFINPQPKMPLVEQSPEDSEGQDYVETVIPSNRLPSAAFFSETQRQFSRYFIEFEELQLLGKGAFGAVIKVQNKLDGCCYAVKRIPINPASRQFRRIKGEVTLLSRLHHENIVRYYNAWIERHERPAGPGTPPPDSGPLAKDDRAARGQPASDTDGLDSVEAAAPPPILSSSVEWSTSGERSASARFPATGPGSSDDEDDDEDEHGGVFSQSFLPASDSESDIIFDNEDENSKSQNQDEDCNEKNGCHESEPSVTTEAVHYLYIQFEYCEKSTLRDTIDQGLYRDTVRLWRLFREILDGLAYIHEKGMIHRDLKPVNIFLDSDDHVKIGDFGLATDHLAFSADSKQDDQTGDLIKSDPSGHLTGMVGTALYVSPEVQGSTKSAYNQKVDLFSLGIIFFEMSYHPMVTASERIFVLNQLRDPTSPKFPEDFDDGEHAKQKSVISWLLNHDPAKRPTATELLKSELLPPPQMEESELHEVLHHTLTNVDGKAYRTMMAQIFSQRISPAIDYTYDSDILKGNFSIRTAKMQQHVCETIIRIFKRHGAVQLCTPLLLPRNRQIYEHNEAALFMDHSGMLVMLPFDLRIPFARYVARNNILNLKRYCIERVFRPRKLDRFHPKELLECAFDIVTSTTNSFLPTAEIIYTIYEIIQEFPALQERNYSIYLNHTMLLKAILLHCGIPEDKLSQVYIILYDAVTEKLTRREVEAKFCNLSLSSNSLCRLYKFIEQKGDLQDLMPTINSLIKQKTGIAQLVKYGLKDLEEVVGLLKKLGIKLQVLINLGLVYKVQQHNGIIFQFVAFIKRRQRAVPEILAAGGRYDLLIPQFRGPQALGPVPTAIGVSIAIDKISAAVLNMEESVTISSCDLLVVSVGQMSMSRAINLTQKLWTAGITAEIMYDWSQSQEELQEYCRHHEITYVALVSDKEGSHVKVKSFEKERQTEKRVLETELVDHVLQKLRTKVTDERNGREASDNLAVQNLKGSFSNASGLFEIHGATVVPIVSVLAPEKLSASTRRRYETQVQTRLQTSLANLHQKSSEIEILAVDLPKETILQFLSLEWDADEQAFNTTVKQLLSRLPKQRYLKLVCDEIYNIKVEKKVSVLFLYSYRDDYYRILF
UniProt Q9P2K8, whole entry M802V: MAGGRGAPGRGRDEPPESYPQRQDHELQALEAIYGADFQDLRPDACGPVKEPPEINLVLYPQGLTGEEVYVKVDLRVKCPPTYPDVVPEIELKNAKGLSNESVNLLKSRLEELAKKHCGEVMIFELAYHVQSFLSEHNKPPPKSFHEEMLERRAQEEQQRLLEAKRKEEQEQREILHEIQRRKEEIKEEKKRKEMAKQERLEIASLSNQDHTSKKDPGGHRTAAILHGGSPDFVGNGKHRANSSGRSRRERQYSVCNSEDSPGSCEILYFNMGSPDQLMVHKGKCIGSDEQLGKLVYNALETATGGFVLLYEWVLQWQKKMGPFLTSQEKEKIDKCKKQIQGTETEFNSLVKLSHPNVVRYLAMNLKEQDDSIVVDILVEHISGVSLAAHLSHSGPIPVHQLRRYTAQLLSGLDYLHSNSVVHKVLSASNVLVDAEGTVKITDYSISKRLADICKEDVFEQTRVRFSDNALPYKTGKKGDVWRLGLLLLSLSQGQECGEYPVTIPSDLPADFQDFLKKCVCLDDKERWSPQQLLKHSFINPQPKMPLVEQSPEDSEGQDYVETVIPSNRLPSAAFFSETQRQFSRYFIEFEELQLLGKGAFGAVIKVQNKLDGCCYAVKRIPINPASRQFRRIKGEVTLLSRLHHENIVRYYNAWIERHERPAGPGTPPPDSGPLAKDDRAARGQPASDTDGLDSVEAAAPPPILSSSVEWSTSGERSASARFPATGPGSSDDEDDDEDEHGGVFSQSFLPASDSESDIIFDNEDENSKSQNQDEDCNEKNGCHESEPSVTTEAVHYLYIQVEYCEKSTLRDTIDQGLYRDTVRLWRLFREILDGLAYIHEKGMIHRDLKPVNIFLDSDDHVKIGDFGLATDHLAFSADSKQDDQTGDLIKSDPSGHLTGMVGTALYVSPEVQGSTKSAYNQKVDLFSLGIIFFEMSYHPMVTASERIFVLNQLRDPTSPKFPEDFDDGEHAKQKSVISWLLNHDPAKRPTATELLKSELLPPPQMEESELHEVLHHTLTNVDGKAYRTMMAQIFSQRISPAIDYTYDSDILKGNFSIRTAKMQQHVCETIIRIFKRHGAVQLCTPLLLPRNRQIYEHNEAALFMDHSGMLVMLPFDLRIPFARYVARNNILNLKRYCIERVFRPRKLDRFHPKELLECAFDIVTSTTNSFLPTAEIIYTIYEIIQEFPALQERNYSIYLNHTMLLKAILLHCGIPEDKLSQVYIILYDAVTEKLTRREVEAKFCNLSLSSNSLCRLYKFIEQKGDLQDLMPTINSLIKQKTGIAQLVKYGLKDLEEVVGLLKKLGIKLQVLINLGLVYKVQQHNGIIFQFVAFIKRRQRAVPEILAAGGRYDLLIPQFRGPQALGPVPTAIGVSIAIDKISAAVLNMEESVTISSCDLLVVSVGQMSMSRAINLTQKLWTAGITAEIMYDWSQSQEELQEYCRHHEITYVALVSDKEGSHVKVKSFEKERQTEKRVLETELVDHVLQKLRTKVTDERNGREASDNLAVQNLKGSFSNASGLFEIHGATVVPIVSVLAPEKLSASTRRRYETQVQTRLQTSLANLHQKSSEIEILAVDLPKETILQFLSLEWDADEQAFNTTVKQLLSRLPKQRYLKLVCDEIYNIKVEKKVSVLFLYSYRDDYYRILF

How the values were obtained:
Type in all cases: cell-based
Gcn2 [1] = molecular target: T1, Gcn2 (Homo sapiens, UniProt Q9P2K8); assay: Immunoblot of ISR markers (p-Gcn2, p-eIF2α, Atf4) in HEK293 cells with endogenous Gcn2 (End. WT); conditions: 1 μM A-92 or 2 μM 2B-Act pretreatment 30 min, then 50 nM Gcn2iB 6 h
Flag-Gcn2 WT = Flag-Gcn2 WT (Homo sapiens, UniProt Q9P2K8); assay: Atf4-Luc translational reporter, Gcn2 KO HEK293 cells expressing Flag-Gcn2 WT; conditions: read-out: A-92 IC50 (Atf4-Luc); Flag-Gcn2 WT + HF: A-92 pretreatment 30 min, then 25 nM HF 6 h
Gcn2 [2] = molecular target: T1, Gcn2; assay: P(AAREx6)-Luc Atf4 transcriptional activity reporter in HEK293 cells; conditions: for IC50: read-out: A-92 IC50 (P(AAREx6)-Luc)
Flag-Gcn2 M802V = Flag-Gcn2 M802V (Homo sapiens, UniProt Q9P2K8, M802V); assay: Atf4-Luc translational reporter, Gcn2 KO HEK293 cells expressing Flag-Gcn2 M802V; conditions: read-out: A-92 IC50 (Atf4-Luc), A-92 only, 6 h
Flag-Gcn2 M802F = Flag-Gcn2 M802F (Homo sapiens, UniProt Q9P2K8, M802F); assay: Atf4-Luc translational reporter, Gcn2 KO HEK293 cells expressing Flag-Gcn2 M802F; conditions: read-out: A-92 IC50 (Atf4-Luc), A-92 only, 6 h

c1nn(C2CCOCC2)cc1Nc1ncc2nnn(-c3ccc4cn[nH]c4c3)c2n1
effect of cotreatment on Gcn2iB-induced p-eIF2α and Atf4 levels (Gcn2 [1]): lowered p-eIF2α and Atf4 levels | IC50 (Flag-Gcn2 WT): > 4000 nM | A-92 concentrations that significantly reduced P(AAREx6)-Luc activity (Gcn2 [2]; A-92 pretreatment 30 min, cells induced by 12.5 nM HF or 31.25 nM Gcn2iB, 6 h): greater than 125 nM | effect on biphasic induction of luciferase activity by Gcn2iB (Gcn2 [2]; pretreated 30 min with 1 μM A-92 or 2 μM 2B-Act, then Gcn2iB 6 h): ablated | IC50 (Gcn2 [2]; agonist 12.5 nM halofuginone, 6 h, A-92 pretreatment 30 min): 579 nM | IC50 (Gcn2 [2]; agonist 31.25 nM Gcn2iB, 6 h, A-92 pretreatment 30 min): 84.9 nM and < 100 nM | IC50 (Gcn2 [2]; agonist 1 μM borrelidin, 6 h, A-92 pretreatment 30 min): 289 nM | IC50 (Gcn2 [2]; agonist 1 μM neratinib, 6 h, A-92 pretreatment 30 min): 69.1 nM and < 100 nM | IC50 (Flag-Gcn2 M802V): 266 nM | IC50 (Flag-Gcn2 M802F): 85 nM
